Test results as given in patent US20030166631A1, “Pharmaceutical compositions and methods for administering EP2 receptor selective agonists” (priority 2001, published 2003).

The chains behind the UniProt entries cited, without tags or fusion partners. Where a name states a change or a piece, a line headed by the entry shows the natural chain unless it says otherwise.
UniProt P43116: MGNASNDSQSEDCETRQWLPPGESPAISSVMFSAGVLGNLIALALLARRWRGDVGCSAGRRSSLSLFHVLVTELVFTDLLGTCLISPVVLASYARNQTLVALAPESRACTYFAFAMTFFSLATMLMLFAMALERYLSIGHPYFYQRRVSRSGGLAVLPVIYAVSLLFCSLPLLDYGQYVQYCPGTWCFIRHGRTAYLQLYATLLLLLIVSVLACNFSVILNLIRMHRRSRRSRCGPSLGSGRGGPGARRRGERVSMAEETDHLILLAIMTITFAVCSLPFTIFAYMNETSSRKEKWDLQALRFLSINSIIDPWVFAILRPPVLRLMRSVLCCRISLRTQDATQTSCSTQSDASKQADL

Target: T1, human EP2 receptors (Homo sapiens, UniProt P43116)
T1 construct: cDNAs representing the complete open reading frames of the human EP2 receptors; expressed in transfected cells
Assay: Scatchard analysis of specific [3H]PGE2 binding in transfected 293-S cells
Settings: 293-S line selected for compound screening, EP2 receptor subtype

Kd: 12 nM
Structure (SMILES): CCCCC[C@H](O)/C=C/[C@H]1[C@H](O)CC(=O)[C@@H]1C/C=C\CCCC(=O)O [PGE2, Prostaglandin E2]
